{"source": "patent US20230312752A1", "about": "(Brown University, priority 2021, published 2023)", "origin": "cited, not measured here", "molecular_target": "CDK2 (Homo sapiens, UniProt P24941)", "design": "key to the marks not given beside the values", "details": "cited from earlier work", "data": [{"substance": "Purvalanol A", "values": [{"measurement": "Inhibitory potency CDK2", "result": "+++"}]}]}
